Here are results for one compound from patent US20200405697A1, “Antitumor Agent” (Taiho Pharmaceutical Co., Ltd, priority 2017, published 2020).

The assay deals with A549 (Human lung cancer cell line). As to the kind of experiment: Effect of combination of sulfonamide compound and other antitumor agent (CellTiter-Glo, combination index): A549.

For the compound `O=c1[nH]c(=O)n([C@H]2C[C@H](O)[C@@H](CO)O2)cc1C(F)(F)F` [Trifluridine, trifluridine], the Fa value is, setting by setting: (Example Compound 14 4420 nM + Trifluridine 645 nM) 0.8577; (Example Compound 14 6640 nM + Trifluridine 969 nM) 0.9068; (Example Compound 209A 952 nM + Trifluridine 646 nM) 0.8235; (Example Compound 209A 1430 nM + Trifluridine 970 nM) 0.9021; (Example Compound 235A 1170 nM + Trifluridine 646 nM) 0.8250; (Example Compound 235A 1750 nM + Trifluridine 967 nM) 0.8950.
